T1: apelin receptor (AGTRL1) (Homo sapiens, UniProt P35414)
T1 construct: host or cells: CHO-K1
T1 sequence (P35414 1-380): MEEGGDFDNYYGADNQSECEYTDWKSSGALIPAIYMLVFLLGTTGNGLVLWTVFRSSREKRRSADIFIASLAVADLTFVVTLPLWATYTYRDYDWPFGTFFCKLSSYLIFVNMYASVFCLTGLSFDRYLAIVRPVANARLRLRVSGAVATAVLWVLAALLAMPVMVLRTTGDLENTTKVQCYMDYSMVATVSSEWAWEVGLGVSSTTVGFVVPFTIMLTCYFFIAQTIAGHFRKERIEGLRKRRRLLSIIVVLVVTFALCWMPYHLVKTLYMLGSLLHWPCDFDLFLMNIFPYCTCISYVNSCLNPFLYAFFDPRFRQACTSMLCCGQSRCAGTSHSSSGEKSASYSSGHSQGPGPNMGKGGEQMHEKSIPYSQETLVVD

T2: apelin receptor (AGTRL1) on CHO-K1 cells (UniProt P35414 1-380, limits assumed)
T2 sequence (looked up): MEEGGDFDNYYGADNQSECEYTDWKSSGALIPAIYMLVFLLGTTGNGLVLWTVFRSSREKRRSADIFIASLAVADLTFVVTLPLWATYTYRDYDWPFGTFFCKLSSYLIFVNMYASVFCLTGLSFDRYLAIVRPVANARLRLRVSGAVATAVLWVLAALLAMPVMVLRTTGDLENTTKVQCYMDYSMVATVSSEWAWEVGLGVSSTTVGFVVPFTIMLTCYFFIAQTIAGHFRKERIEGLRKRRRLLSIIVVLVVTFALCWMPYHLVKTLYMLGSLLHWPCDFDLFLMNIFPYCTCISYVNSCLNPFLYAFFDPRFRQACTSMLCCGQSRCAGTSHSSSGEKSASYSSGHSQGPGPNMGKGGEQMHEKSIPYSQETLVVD

B1: APL-C: Fc-linker fusion of apelin analogue QRPRLSHWGPMPF (K8W) (protein)
chain: MRAWIFFLLCLAGRALADKTHTSPPSPAPEAAGGPSVFLFPPKPKDTLMISRTPEVTCVVVDVSHEDPEVKFNWYVDGVEVHNAKTKPREEQYNSTYRVVSVLTVLHQDWLNGKEYKCKVSNKALPAPIEKTISKAKGQPREPQVYTLPPSREEMTKNQVNLTCLVKGFYPSDIAVEWESNGQPENNYKTTPPVLDSDGSFFLNSTLTVDKSRWQQGNVFSCSVMHEALHNHYTQKSLSLSPGKGGGGSGGGGSGGGGSQRPRLSHWGPMPF
B2: APL-B (Fc fusion)
chain: DKTHTSPPSPAPEAAGGPSVFLFPPKPKDTLMISRTPEVTCVVVDVSHEDPEVKFNWYVDGVEVHNAKTKPREEQYNSTYRVVSVLTVLHQDWLNGKEYKCKVSNKALPAPIEKTISKAKGQPREPQVYTLPPSREEMTKNQVNLTCLVKGFYPSDIAVEWESNGQPENNYKTTPPVLDSDGSFFLNSTLTVDKSRWQQGNVFSCSVMHEALHNHYTQKSLSLSPGKGGGGSGGGGSGGGGSQRPRLSHKGPMVF
B3: APL-J (Fc fusion)
chain: DKTHTSPPSPAPEAAGGPSVFLFPPKPKDTLMISRTPEVTCVVVDVSHEDPEVKFNWYVDGVEVHNAKTKPREEQYNSTYRVVSVLTVLHQDWLNGKEYKCKVSNKALPAPIEKTISKAKGQPREPQVYTLPPSREEMTKNQVNLTCLVKGFYPSDIAVEWESNGQPENNYKTTPPVLDSDGSFFLNSTLTVDKSRWQQGNVFSCSVMHEALHNHYTQKSLSLSPGKGGGGSGGGGSGGGGSQRPRLSHKGPAAY
B4: APL-K (Fc fusion)
chain: DKTHTSPPSPAPEAAGGPSVFLFPPKPKDTLMISRTPEVTCVVVDVSHEDPEVKFNWYVDGVEVHNAKTKPREEQYNSTYRVVSVLTVLHQDWLNGKEYKCKVSNKALPAPIEKTISKAKGQPREPQVYTLPPSREEMTKNQVNLTCLVKGFYPSDIAVEWESNGQPENNYKTTPPVLDSDGSFFLNSTLTVDKSRWQQGNVFSCSVMHEALHNHYTQKSLSLSPGKGGGGSGGGGSGGGGSQRPRLQHKNPMAF
B5: APL-L (Fc fusion)
chain: DKTHTSPPSPAPEAAGGPSVFLFPPKPKDTLMISRTPEVTCVVVDVSHEDPEVKFNWYVDGVEVHNAKTKPREEQYNSTYRVVSVLTVLHQDWLNGKEYKCKVSNKALPAPIEKTISKAKGQPREPQVYTLPPSREEMTKNQVNLTCLVKGFYPSDIAVEWESNGQPENNYKTTPPVLDSDGSFFLNSTLTVDKSRWQQGNVFSCSVMHEALHNHYTQKSLSLSPGKGGGGSGGGGSGGGGSQRPRLQHKNPMAW
B6: APL-M (Fc fusion)
chain: DKTHTSPPSPAPEAAGGPSVFLFPPKPKDTLMISRTPEVTCVVVDVSHEDPEVKFNWYVDGVEVHNAKTKPREEQYNSTYRVVSVLTVLHQDWLNGKEYKCKVSNKALPAPIEKTISKAKGQPREPQVYTLPPSREEMTKNQVNLTCLVKGFYPSDIAVEWESNGQPENNYKTTPPVLDSDGSFFLNSTLTVDKSRWQQGNVFSCSVMHEALHNHYTQKSLSLSPGKGGGGSGGGGSGGGGSQRPRLSHWGPMAW
B7: APL-C (Fc fusion)
chain: DKTHTSPPSPAPEAAGGPSVFLFPPKPKDTLMISRTPEVTCVVVDVSHEDPEVKFNWYVDGVEVHNAKTKPREEQYNSTYRVVSVLTVLHQDWLNGKEYKCKVSNKALPAPIEKTISKAKGQPREPQVYTLPPSREEMTKNQVNLTCLVKGFYPSDIAVEWESNGQPENNYKTTPPVLDSDGSFFLNSTLTVDKSRWQQGNVFSCSVMHEALHNHYTQKSLSLSPGKGGGGSGGGGSGGGGSQRPRLSHWGPMPF
B8: APL-D (Fc fusion)
chain: DKTHTSPPSPAPEAAGGPSVFLFPPKPKDTLMISRTPEVTCVVVDVSHEDPEVKFNWYVDGVEVHNAKTKPREEQYNSTYRVVSVLTVLHQDWLNGKEYKCKVSNKALPAPIEKTISKAKGQPREPQVYTLPPSREEMTKNQVNLTCLVKGFYPSDIAVEWESNGQPENNYKTTPPVLDSDGSFFLNSTLTVDKSRWQQGNVFSCSVMHEALHNHYTQKSLSLSPGKGGGGSGGGGSGGGGSERPRLSHKGPMPF
B9: APL-E (Fc fusion)
chain: DKTHTSPPSPAPEAAGGPSVFLFPPKPKDTLMISRTPEVTCVVVDVSHEDPEVKFNWYVDGVEVHNAKTKPREEQYNSTYRVVSVLTVLHQDWLNGKEYKCKVSNKALPAPIEKTISKAKGQPREPQVYTLPPSREEMTKNQVNLTCLVKGFYPSDIAVEWESNGQPENNYKTTPPVLDSDGSFFLNSTLTVDKSRWQQGNVFSCSVMHEALHNHYTQKSLSLSPGKGGGGSGGGGSGGGGSQRPRLSHKGPHPF
B10: APL-F (Fc fusion)
chain: DKTHTSPPSPAPEAAGGPSVFLFPPKPKDTLMISRTPEVTCVVVDVSHEDPEVKFNWYVDGVEVHNAKTKPREEQYNSTYRVVSVLTVLHQDWLNGKEYKCKVSNKALPAPIEKTISKAKGQPREPQVYTLPPSREEMTKNQVNLTCLVKGFYPSDIAVEWESNGQPENNYKTTPPVLDSDGSFFLNSTLTVDKSRWQQGNVFSCSVMHEALHNHYTQKSLSLSPGKGGGGSGGGGSGGGGSQRPRLSHKGPAPY
B11: APL-G (Fc fusion)
chain: DKTHTSPPSPAPEAAGGPSVFLFPPKPKDTLMISRTPEVTCVVVDVSHEDPEVKFNWYVDGVEVHNAKTKPREEQYNSTYRVVSVLTVLHQDWLNGKEYKCKVSNKALPAPIEKTISKAKGQPREPQVYTLPPSREEMTKNQVNLTCLVKGFYPSDIAVEWESNGQPENNYKTTPPVLDSDGSFFLNSTLTVDKSRWQQGNVFSCSVMHEALHNHYTQKSLSLSPGKGGGGSGGGGSGGGGSQRPRLSHKGPMAF
B12: APL-A (Fc fusion)
chain: DKTHTSPPSPAPEAAGGPSVFLFPPKPKDTLMISRTPEVTCVVVDVSHEDPEVKFNWYVDGVEVHNAKTKPREEQYNSTYRVVSVLTVLHQDWLNGKEYKCKVSNKALPAPIEKTISKAKGQPREPQVYTLPPSREEMTKNQVNLTCLVKGFYPSDIAVEWESNGQPENNYKTTPPVLDSDGSFFLNSTLTVDKSRWQQGNVFSCSVMHEALHNHYTQKSLSLSPGKGGGGSGGGGSGGGGSQRPRLSHKGPMPF
B13: APL-H (Fc fusion)
chain: DKTHTSPPSPAPEAAGGPSVFLFPPKPKDTLMISRTPEVTCVVVDVSHEDPEVKFNWYVDGVEVHNAKTKPREEQYNSTYRVVSVLTVLHQDWLNGKEYKCKVSNKALPAPIEKTISKAKGQPREPQVYTLPPSREEMTKNQVNLTCLVKGFYPSDIAVEWESNGQPENNYKTTPPVLDSDGSFFLNSTLTVDKSRWQQGNVFSCSVMHEALHNHYTQKSLSLSPGKGGGGSGGGGSGGGGSQRPRLSHKGPMHW
B14: APL-I (Fc fusion)
chain: DKTHTSPPSPAPEAAGGPSVFLFPPKPKDTLMISRTPEVTCVVVDVSHEDPEVKFNWYVDGVEVHNAKTKPREEQYNSTYRVVSVLTVLHQDWLNGKEYKCKVSNKALPAPIEKTISKAKGQPREPQVYTLPPSREEMTKNQVNLTCLVKGFYPSDIAVEWESNGQPENNYKTTPPVLDSDGSFFLNSTLTVDKSRWQQGNVFSCSVMHEALHNHYTQKSLSLSPGKGGGGSGGGGSGGGGSQRPRLSHKGPAAW

These molecules were tested against T1, apelin receptor (AGTRL1) (assay: PathHunter beta-arrestin signaling assay). Conditions: Exp. 1; PathHunter CHO-K1 AGTRL1 β-arrestin cells.
Format: cell-based
Protocol: In this example, commercially available HitHunter® cAMP assay was used to determine the effect of apelin receptor agonists on Gai signaling, measured cAMP depletion. Next, commercially available PathHunter® beta-arrestin assay was used to determine the effect of apelin receptor agonists on beta-arrestin signaling. Additionally, the effect of apelin receptor agonists on ERK signaling was determined.
In a 384-well plate (Corning #3897), PathHunter® CHO-K1 AGTRL1 β-arrestin cells (Eurofins DiscoverX #93-0250C2) were seeded at 5×10^3 cells/well in 20 μL AssayComplete Cell Plating 2 Reagent (Eurofins DiscoverX #93-0563R2A) and were incubated overnight at 37° C. with 5% CO2. On the following day, the plate was treated with 5 μL/well of compounds serially diluted in 1×PBS+0.1% BSA buffer and was incubated for 1.5 hr at 37° C. with 5% CO2. Then, 12.5 μL/well of detection solution was added, prepared as instructed in the PathHunter® Detection Kit (Eurofins DiscoverX #93-0001), the plate was wrapped in foil, and was incubated at room temperature. Plates were read after 1-2 hr of incubation on a standard luminescence plate reader. In this assay, low levels of β-arrestin in cells were directly related to low luminescence signal. Using Four Parameter Logistic Regression for curve fitting, the raw data file was processed into S-shaped dose-response curves from which values, such as the EC50, Hill Slope, and Emax, were quantified.
In the case of B1, the “beta-Arrestin EC50 (nM) Exp. 1” value is reported as “Weak”.

Same assay, conditions: Exp. 2; PathHunter CHO-K1 AGTRL1 β-arrestin cells
In the case of B1, the “beta-Arrestin EC50 (nM) Exp. 2” value is reported as “Weak”.

The molecules below were run against T2, apelin receptor (AGTRL1) on CHO-K1 cells (assay: cell-based or functional assay). Conditions: not given.
For B2, the “ERK EC50” value was 2.63 nM, the “beta-Arrestin EC50 (nM) Exp. 1” value was 337 nM and the “beta-Arrestin EC50 (nM) Exp. 2” value was 110 nM. For the same molecule, the “cAMP EC50 (nM) Exp. 1” value was 3.66 nM and the “cAMP EC50 (nM) Exp. 2” value was 5.4 nM.
In the case of B3, the “beta-Arrestin EC50 (nM) Exp. 1” value is reported as 370 nM, the “beta-Arrestin EC50 (nM) Exp. 2” value is reported as 373 nM and the “cAMP EC50 (nM) Exp. 2” value is reported as 3.8 nM.
B4 was tested, and the “cAMP EC50 (nM) Exp. 1” value was 14.2 nM and the “cAMP EC50 (nM) Exp. 2” value was 14.2 nM.
For B5, the “cAMP EC50 (nM) Exp. 1” value was 73.4 nM and the “cAMP EC50 (nM) Exp. 2” value was 73.4 nM.
With B6 the “cAMP EC50 (nM) Exp. 1” value was 8.3 nM and the “cAMP EC50 (nM) Exp. 2” value was 8.3 nM.
B7 was tested, and the “ERK EC50” value was 0.68 nM, the “cAMP EC50 (nM) Exp. 1” value was 50.4 nM and the “cAMP EC50 (nM) Exp. 2” value was 24.6 nM.
For B8, the “ERK EC50” value was 0.1 nM, the “beta-Arrestin EC50 (nM) Exp. 1” value was 181 nM and the “cAMP EC50 (nM) Exp. 1” value was 3.45 nM. The “cAMP EC50 (nM) Exp. 2” value was 11.1 nM.
B9 was tested, and the “ERK EC50” value was 14.4 nM, the “cAMP EC50 (nM) Exp. 1” value was 54.6 nM and the “cAMP EC50 (nM) Exp. 2” value was 37.5 nM.
B10 was tested, and the “ERK EC50” value was 1.95 nM, the “beta-Arrestin EC50 (nM) Exp. 1” value was 1430 nM and the “cAMP EC50 (nM) Exp. 1” value was 18.3 nM. For the same molecule, the “cAMP EC50 (nM) Exp. 2” value was 13.6 nM.
B11 was tested, and the “ERK EC50” value was 0.64 nM, the “beta-Arrestin EC50 (nM) Exp. 1” value was 23.6 nM and the “beta-Arrestin EC50 (nM) Exp. 2” value was 44.5 nM. For the same molecule, the “cAMP EC50 (nM) Exp. 1” value was 2.81 nM and the “cAMP EC50 (nM) Exp. 2” value was 1.2 nM.
For B12, the “ERK EC50” value was 1.97 nM, the “beta-Arrestin EC50 (nM) Exp. 1” value was 1010 nM and the “cAMP EC50 (nM) Exp. 1” value was 6.85 nM. The “cAMP EC50 (nM) Exp. 2” value was 2.2 nM.
For B13, the “beta-Arrestin EC50 (nM) Exp. 1” value was 172 nM, the “beta-Arrestin EC50 (nM) Exp. 2” value was 172 nM and the “cAMP EC50 (nM) Exp. 1” value was 6.54 nM. The “cAMP EC50 (nM) Exp. 2” value was 6.5 nM.
With B14 the “cAMP EC50 (nM) Exp. 1” value was 18 nM and the “cAMP EC50 (nM) Exp. 2” value was 18 nM.

Reference: US20240383958A1, “APELIN RECEPTOR AGONISTS AND USES THEREOF” (VISTERRA, INC., priority 2023, published 2024)
